The text below walks through data of article PMC10310857 (Nature Communications, 2023).

Chains of the proteins cited; added tags and fusions are not shown.
UniProt G2X9U7, entry or part of it: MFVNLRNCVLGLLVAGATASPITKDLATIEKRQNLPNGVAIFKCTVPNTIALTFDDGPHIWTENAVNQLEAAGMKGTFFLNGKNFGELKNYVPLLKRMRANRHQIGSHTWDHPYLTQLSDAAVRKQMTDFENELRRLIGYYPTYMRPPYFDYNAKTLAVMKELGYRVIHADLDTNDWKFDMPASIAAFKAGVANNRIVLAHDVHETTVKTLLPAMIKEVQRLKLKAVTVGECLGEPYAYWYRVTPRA

The assay addresses VdPDA1 (Verticillium dahliae, UniProt G2X9U7). Description: biochemical.

Where two headings read alike, the source gives them in different places.

What is called inhibition is how much of the control response was suppressed. In the case of `O=C(NO)c1ccccc1` [Compound 1, benzohydroxamic acid], the inhibition at 100 µM reads like this: (read-out: Inhibition Rate VdPDA1 Mean) 96.3%; (read-out: VdPDA1 Inhibition rate (%, mean ± SD, 100 μM)) 96.3 ± 0.4%.
